Values of other authors, collected in patent US10413612B2, “Method of treating cancer with a biomaterial and a toll-like receptor agonist” (Dana-Farber Cancer Institute, Inc., priority 2016, dated 2019).

Assays:
TLR7 = target: T1, TLR7 (Homo sapiens, UniProt Q9NYK1); settings: cited from earlier work
T1 construct: expressed in transfected cells; host or cells: HEK293
T1 sequence (Q9NYK1 27-1049): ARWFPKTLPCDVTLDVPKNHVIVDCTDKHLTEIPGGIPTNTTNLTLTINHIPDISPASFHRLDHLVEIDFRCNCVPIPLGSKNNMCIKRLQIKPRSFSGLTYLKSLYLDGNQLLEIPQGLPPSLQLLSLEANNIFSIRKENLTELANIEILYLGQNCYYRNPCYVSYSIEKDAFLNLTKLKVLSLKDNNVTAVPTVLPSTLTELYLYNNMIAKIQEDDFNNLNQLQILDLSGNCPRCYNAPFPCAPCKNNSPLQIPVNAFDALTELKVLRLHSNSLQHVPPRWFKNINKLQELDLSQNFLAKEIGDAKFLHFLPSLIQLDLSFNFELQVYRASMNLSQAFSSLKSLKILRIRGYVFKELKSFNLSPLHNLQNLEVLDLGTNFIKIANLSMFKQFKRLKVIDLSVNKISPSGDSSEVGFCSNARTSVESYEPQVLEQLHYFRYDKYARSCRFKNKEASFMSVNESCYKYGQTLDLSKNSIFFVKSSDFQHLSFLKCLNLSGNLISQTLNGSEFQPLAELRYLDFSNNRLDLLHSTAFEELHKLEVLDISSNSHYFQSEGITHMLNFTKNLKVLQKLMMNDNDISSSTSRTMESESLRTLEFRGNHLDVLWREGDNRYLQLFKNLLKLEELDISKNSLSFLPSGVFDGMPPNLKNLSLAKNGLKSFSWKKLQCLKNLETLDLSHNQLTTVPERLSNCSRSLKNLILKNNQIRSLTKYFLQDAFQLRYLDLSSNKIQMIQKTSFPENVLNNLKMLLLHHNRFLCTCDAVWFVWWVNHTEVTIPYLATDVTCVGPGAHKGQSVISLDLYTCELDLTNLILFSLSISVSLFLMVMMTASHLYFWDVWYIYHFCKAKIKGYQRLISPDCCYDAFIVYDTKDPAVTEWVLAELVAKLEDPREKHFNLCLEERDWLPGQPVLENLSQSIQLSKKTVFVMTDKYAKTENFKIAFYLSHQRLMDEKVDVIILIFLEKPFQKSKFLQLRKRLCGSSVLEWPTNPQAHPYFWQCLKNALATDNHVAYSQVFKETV

TLR8 = target: T2, TLR8 (Homo sapiens, UniProt Q9NR97); settings: cited from earlier work
T2 construct: expressed in transfected cells; host or cells: HEK293
T2 sequence (Q9NR97 27-1041): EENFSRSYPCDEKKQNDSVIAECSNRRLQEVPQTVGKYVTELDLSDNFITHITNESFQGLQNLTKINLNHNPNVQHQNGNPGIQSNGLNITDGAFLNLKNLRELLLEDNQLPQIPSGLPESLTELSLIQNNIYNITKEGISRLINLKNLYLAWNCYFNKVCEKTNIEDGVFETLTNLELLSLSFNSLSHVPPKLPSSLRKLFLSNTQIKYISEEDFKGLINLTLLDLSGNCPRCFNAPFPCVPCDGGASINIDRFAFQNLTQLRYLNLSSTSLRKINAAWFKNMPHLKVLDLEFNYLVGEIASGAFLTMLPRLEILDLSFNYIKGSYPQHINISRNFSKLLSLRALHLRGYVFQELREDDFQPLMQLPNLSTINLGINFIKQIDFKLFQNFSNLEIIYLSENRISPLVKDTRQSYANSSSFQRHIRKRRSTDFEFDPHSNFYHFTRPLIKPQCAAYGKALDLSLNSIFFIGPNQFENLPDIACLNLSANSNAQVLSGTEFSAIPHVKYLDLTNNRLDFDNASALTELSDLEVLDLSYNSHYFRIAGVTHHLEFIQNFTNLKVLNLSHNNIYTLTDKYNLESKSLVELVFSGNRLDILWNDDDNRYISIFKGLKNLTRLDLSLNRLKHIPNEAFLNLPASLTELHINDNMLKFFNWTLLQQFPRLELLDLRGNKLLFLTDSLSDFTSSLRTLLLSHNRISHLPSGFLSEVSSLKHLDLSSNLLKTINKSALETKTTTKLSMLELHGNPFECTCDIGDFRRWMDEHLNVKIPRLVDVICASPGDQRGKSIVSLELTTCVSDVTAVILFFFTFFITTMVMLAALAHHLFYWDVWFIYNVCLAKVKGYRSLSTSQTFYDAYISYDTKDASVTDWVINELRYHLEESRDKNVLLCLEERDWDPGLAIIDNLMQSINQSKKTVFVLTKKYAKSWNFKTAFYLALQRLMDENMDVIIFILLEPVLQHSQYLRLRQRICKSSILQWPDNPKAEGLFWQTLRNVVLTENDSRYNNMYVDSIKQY

## CCOCc1nc2c(N)nc3ccccc3c2[nH]1 [CL097]
TLR7
  concentration inducing NF-κB activation: 0.4 μM and 0.1 μg/ml
TLR8
  concentration inducing NF-κB activation: 4 μM and 1 μg/ml

“And” between values parts separate entries of the source, which are not always exact repeats. Equal values may be shown once.
